Results published in patent US8372950B2, “IgG binding peptide” (Kagoshima University, priority 2006, dated 2013).

What was measured:
human MRA (IgG) = target: T1, human MRA (IgG) (Homo sapiens, UniProt P01857); assay: dot blotting detection of human MRA (IgG) on nitrocellulose membranes; type: binding; details: untreated MRA, Fc-III(N)
T1 construct: purchased Chugai Pharmaceutical
Description: Acid-treated human MRA (IgG) was detected on the membrane using IMGpep-4K6R (the peptide of the present invention) and the IMGpep-1CS peptide. Specifically, acid-treated human MRA (IgG) and untreated human MRA (IgG) were spotted on nitrocellulose membranes in an amount of 1.5 ng, 3 ng, 6 ng, 12.5 ng, 25 ng, 50 ng, and 100 ng per spot. The membranes were dried for 5 minutes and then 0.5% BSA was added for blocking for 2 hours at room temperature. Here, acid-treated human MRA was prepared by adding 10 μl of 1 M glycine-HCl (pH 2.8) to 100 μl of humanized anti-human IL-6 receptor IgG antibody (MRA) (2000 μg/ml, PBS solution), carrying out incubation at 40° C. for 10 minutes, and then neutralizing it by the addition of 30 μl of 1 M Tris-HCl (pH 8.7).
A biotinylated IMGpep-4K6R peptide or a biotinylated Fc-III peptide, or IMGpep-1CS, were mixed with HRP-conjugated SA (streptavidin) (120 nM) in advance at a molar ratio of 4:1. The mixture was added to the membranes blocked as described above, followed by 1 hour of reaction. After 3 times of washing with PBS containing 0.1% Tween20, a chemiluminescence reagent (Chemi-Lumi One, Nakalai Tesque) was added. Images were analyzed for detection using a LAS-1000 Image Analyzer (Fuji Film).

[1] = SPR determination of generation rate of acid-denatured IgG under acid treatment conditions; type: physicochemical; details: 10 minutes
Description: For this SPR analysis, human IgG samples were prepared via acid treatment under various conditions as described below and then tested. […] Subsequently, 30 μl (or 20 μl for a sample to which glycine-HCl with pH 2.7 had been added) of 1 M Tris-HCl (pH 8.7) was added to each solution for neutralization.

Substance “DCAWHLGELVWCT [Fc-III, reference compound]” has a detection limit (human MRA (IgG)) of 6 ng/spot.

With “anti-HER2 human antibody: anti-HER2 human antibody (Herceptin)” the “generation rate of acid-denatured IgG” value ([1]; acid treatment pH 1.5, 20° C.) was 12.8%, the “generation rate of acid-denatured IgG” value ([1]; acid treatment pH 2.1, 20° C.) was 7.8% and the “generation rate of acid-denatured IgG” value ([1]; acid treatment pH 2.7, 20° C.) was “approximately 5%”. For the same substance, the “generation rate of acid-denatured IgG” value ([1]; acid treatment pH 2.7, 30° C.) was 9.7%.
